## Antibody variant affinities, Ab-91 heavy chain, assay 2

Target peptide (SARS-CoV-2 spike, HR2 region): PDVDLGDISGINAS

Parent: Ab-91, a human scFv built as VL, a 15-residue (Gly4Ser)3 linker, VH. Only the CDRs of the heavy chain vary.
VL: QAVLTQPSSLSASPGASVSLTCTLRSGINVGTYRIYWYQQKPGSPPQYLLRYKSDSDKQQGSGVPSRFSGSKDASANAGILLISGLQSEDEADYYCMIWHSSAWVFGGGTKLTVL
VH: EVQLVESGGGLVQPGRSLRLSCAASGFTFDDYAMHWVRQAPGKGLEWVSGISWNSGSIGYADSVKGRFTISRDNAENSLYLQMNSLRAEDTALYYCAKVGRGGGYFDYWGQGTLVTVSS

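AAYL51 was designed without a model: most single CDR substitutions and a random sample of double and triple ones. The scFvs were displayed on barcoded MATa yeast, the peptide on MATalpha yeast. Binding brings cells together so that they mate, and sequencing counts the barcode pairs among the diploids. Each replicate has its own calibration line, from reference interactions of the BCL2 family. The assay was run in three technical replicates.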

Each variant's VH is given in full. Numbers give log10(Kd / nM), so 0 is 1 nM and 3 is 1 µM. Smaller is tighter. Replicates are averaged; those with no signal do not enter the mean. Where no diploid with the target was found in any replicate, the entry reads "nd": below detection, most likely a poor binder, though not proof of it. Order: sorted from the lowest average up, undetected variants last. Parent in this assay: reference entry 1.86, copy in this library 0.88.

Result 1.92 (3 of 3 replicates), variant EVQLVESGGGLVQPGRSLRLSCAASCFHFDDYAMHWVRQAPGKGLEWVSGISWNSISIGYADSVKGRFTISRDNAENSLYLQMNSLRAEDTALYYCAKVGRGGGYFDYWGQGTLVTVSS.
Result 2.33 (3 of 3 replicates), variant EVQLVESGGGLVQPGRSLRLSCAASGFTFDDYAMHWVRQAPGKGLEWVSGISWNSGSIGYANSVKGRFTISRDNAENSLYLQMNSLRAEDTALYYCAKWGRGGGVFDYWGQGTLVTVSS.
Result 3.65 (2 of 3 replicates), variant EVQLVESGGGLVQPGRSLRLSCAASGFTFDDYAMHWVRQAPGKGLEWVSGISWNSGSKAYADSVKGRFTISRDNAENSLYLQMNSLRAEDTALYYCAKVGRRGGYFDYWGQGTLVTVSS.
Result 3.80 (2 of 3 replicates), variant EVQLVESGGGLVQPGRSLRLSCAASGFTFDDYAWHWVRQAPGKGLEWVSGIPWNSGSIGYADLVKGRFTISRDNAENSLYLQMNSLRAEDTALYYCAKVGRGGGYFDYWGQGTLVTVSS.
Result 4.05 (1 of 3 replicates), variant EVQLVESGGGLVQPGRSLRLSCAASGFCQDDYAMHWVRQAPGKGLEWVSGISWYSGSIGYADSVKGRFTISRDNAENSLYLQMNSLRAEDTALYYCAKVGRGGGYFDYWGQGTLVTVSS.
Result 4.07 (1 of 3 replicates), variant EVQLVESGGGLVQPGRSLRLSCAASGFTFDTYAMHWVRQAPGKGLEWVSGISWYSGSIGYADTVKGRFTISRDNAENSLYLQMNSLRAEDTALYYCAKVGRGGGYFDYWGQGTLVTVSS.
Result 4.13 (1 of 3 replicates), variant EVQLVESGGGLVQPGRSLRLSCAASGFTFDDYAMHWVRQAPGKGLEWVSGISWNHGSIGYGDSVKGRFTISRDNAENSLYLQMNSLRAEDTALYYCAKVGRGGGYFDYWGQGTLVTVSS.
Result 4.26 (1 of 3 replicates), variant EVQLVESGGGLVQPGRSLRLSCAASGFTFDDYAMHWVRQAPGKGLEWVSGISWNSGSKGYADSVKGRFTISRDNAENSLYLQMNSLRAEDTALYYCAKVGRGMGYMDYWGQGTLVTVSS.
Result 4.27 (1 of 3 replicates), variant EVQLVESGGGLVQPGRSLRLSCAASGFTTDDYAMHWVRQAPGKGLEWVSGISWNSGSIGYVDSVKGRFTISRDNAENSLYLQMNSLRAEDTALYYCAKVGRGGGGFDYWGQGTLVTVSS.
Result 4.28 (1 of 3 replicates), variant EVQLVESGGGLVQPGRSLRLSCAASGFTFDDYGMHWVRQAPGKGLEWVSGISWISGSIGYADSVKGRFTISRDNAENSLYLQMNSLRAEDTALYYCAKVPRGGGYFDYWGQGTLVTVSS.
Result 4.52 (1 of 3 replicates), variant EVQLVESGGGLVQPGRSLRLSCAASGFTFDDYAMHWVRQAPGKGLEWVSGMSWNSGSIGQADSVEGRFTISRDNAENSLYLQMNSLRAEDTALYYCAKVGRGGGYFDYWGQGTLVTVSS.
Result 4.62 (1 of 3 replicates), variant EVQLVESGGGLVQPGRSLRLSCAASGFTFDDYAMHWVRQAPGKGLEWVSGISWESGSIGCLDSVKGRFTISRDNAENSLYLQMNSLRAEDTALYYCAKVGRGGGYFDYWGQGTLVTVSS.
Result 4.94 (2 of 3 replicates), variant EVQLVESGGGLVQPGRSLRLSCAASQFTFDDYAMHWVRQAPGKGLEWVSGISWNSGSIGYADSVKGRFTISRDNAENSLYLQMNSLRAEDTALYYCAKVWRGGKYFDYWGQGTLVTVSS.
Result 5.04 (3 of 3 replicates), variant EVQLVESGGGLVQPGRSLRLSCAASGFTFDDFAMFWVRQAPGKGLEWVSGISWNSGSIGYADSVKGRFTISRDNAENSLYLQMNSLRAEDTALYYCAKVGRGGGSFDYWGQGTLVTVSS.
Result 6.08 (1 of 3 replicates), variant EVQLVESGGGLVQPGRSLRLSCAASGFTFDDYAMHWVRQAPGKGLEWVSGISWKSGAIGYADSVKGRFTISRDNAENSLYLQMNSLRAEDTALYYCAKVGRGGMYFDYWGQGTLVTVSS.
Result nd (0 of 3 replicates), variant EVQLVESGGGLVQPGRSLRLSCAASGFTFDDYRMHWVRQAPGKGLEWVSGISWNPGSIGYADSVKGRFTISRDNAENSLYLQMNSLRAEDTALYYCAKVGRGGGYFDCWGQGTLVTVSS.
Result nd (0 of 3 replicates), variant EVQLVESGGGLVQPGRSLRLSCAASGFTFDDRAMHWVRQAPGKGLEWVSGISWNSGSIGAAESVKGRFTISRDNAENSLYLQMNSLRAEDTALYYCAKVGRGGGYFDYWGQGTLVTVSS.
Result nd (0 of 3 replicates), variant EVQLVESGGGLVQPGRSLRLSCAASGFTFDDYAMHWVRQAPGKGLEWVSGYSWNSGSIGYADSVKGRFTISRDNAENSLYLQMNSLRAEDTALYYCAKVTRGGGYFDYWGQGTLVTVSS.
Result nd (0 of 3 replicates), variant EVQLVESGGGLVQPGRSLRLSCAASGFTFDDYAEHWVRQAPGKGLEWVSGISWNSGSIGYADSVKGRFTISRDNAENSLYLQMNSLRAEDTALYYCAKVGSGGGYADYWGQGTLVTVSS.
Result nd (0 of 3 replicates), variant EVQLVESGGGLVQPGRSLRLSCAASGFTFDDYAMHWVRQAPGKGLEWVSGISWWSGSIGYADSVKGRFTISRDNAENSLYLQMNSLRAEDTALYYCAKVGRGGGHFDYWGQGTLVTVSS.
Result nd (0 of 3 replicates), variant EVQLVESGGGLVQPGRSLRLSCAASFFTMDDYAMHWVRQAPGKGLEWVSGISWNSGSIGYADSVKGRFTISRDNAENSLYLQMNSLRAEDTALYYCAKVGRGGKYFDYWGQGTLVTVSS.
Result nd (0 of 3 replicates), variant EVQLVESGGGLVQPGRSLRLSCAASGFTFDDYAMHWVRQAPGKGLEWVSGISPNSGSIGYADSVKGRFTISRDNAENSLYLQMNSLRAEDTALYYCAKVHRGGGYFDYWGQGTLVTVSS.
Result nd (0 of 3 replicates), variant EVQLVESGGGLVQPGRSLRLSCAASGFTFDDYAMHWVRQAPGKGLEWVSGTSWNSGSIGYACSVKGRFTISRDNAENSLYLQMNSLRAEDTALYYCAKVGRGGGYFDYWGQGTLVTVSS.
Result nd (0 of 3 replicates), variant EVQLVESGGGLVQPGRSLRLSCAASGFTFDDYAMFWVRQAPGKGLEWVSGISWNSGSNGYADSVKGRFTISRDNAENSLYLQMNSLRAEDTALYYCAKVGRGGGYFFYWGQGTLVTVSS.

Excerpt, the first 2 entries:

| VH | log10 Kd (nM), mean | detected |
|---|---|---|
| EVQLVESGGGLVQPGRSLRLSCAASCFHFDDYAMHWVRQAPGKGLEWVSGISWNSISIGYADSVKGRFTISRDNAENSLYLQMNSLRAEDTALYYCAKVGRGGGYFDYWGQGTLVTVSS | 1.92 | 3 of 3 |
| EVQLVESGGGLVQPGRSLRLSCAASGFTFDDYAMHWVRQAPGKGLEWVSGISWNSGSIGYANSVKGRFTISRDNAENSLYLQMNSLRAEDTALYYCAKWGRGGGVFDYWGQGTLVTVSS | 2.33 | 3 of 3 |

Background: pairings of library AAYL51 with three empty control strains gave a value in 21% of cases (median 4.54, 5th percentile 3.26). Values in that range, when seen in few replicates, are hard to tell from nonspecific mating.

From the AlphaSeq antibody data of Engelhart et al. 2022 (doi:10.1038/s41597-022-01779-4), copy in the FLAb collection.